Assay results: patent US11680043B2, “Pharmaceutically acceptable salts of psilocin and uses thereof” (priority 2021, dated 2023)
Values joined by “and” are separate entries in the source; they are usually repeats but may differ in a detail not shown here. Identical values can stand only once.

How the values were obtained:
[1] = Solubility of psilocin salts in saline
[2] = GVS (hygroscopicity); settings: between 0 and 80% RH
[3] = Saline, updated summary (Table 10)
[4] = pH of saturated solution in saline (Table 9)
[5] = saline, 25° C., 750 rpm, maximum anticipated concentration 10 mg/mL of free base (Table 9)

Substance	Appearance at 5 hrs [1, 3]	pH at 5 hrs [1, 3]	pH at 5 hrs [1, 4]	Appearance at 5 hrs [1, 5]	GVS: mass change [2]	Solubility in Saline ([1]; Table 4 summary) [mg/mL]
Psilocin tartrate	Clear solution	3.5	3.4	Clear solution	–	–
Psilocin succinate [Psilocin succinate SUC Pattern 3]	–	6.4 and 6.5	6.5 and 6.4	–	Only 1.0% mass	>27
Psilocin tartrate [Psilocin tartrate TAR Pattern 1]	–	3.5	3.4	Clear solution	–	–
